Data as given in PubChem BioAssay AID485364 (National Center for Advancing Translational Sciences (NCATS), 2010).
The campaign covered roughly 360,000 compounds. About 11,000 (3.1%) were called active. Only results without a clear call are listed here; the source files them as inconclusive. Calls follow the shape of the dose curve; as a rule, active = well fitted inhibition curve with a large enough effect; inconclusive = small, poorly fitted or top-dose-only effect; inactive = no such curve, though single readings can be large or run the other way.
Also: nearly all actives have a fitted effect of over 60% in size.
Potency is read from the fitted curve at half-maximal effect.

What follows are molecules tested against Schistosoma mansoni thioredoxin glutathione reductase (TGR) (UniProt Q962Y6) (assay: qHTS Assay for the Inhibitors of Schistosoma Mansoni Peroxiredoxins). Settings: purified TGR, DTNB reduction, TNB absorbance 405 nm.
From the text: Schistosomiasis is a major neglected tropical disease that currently affects over 200 million. It is caused by different species of flatworms, such as Schistosoma mansoni. Over the last century, drugs to treat the disease have evolved from potassium antimonyl tartrate, artemisinin, oxamniquine, to praziquantel, with praziquantel remaining the universally-used single drug of choice over the past three decades. However, transmission rates have changed little with praziquantel, and there is evidence for the development of drug resistant parasites. Because there is currently no suitable alternative therapy available, there is an urgent need to identify new targets and drugs for schistosomiasis treatment. Thioredoxin glutathione reductase (TGR), one uniquely positioned S. mansoni enzyme, has been identified as a major component of the worms' distinct and compressed antioxidant "firewall". TGR is a multifunctional enzyme that catalyzes the interconversion between reduced and oxidized forms of both glutathione (GSH) and thioredoxins, thus making it an attractive new antiparasitic target. Recently, a quantitative high-throughput screen of the NIH Molecular Libraries Small Molecule Repository (MLSMR, ~71K at the time of the screen in 2007) was performed using an assay that targeted both TGR and peroxiredoxin2 (Prx2, an H2O2-reducing enzymatic component of the S. mansoni redox "firewall") by following the decrease of NADPH fluorescence. […] Additional mechanistic link between exogenous NO donation and parasitic injury for the oxadiazole-2-oxide class of compounds was also expanded and better defined. Although the screen addressed both TGR and Prx2, the assay required post-screen target deconvolution for further characterization of the actives. In addition, the fluorescence assay was also subject to fluorescence interference from compound library members. We have developed a 1536-well-based kinetic HTS assay to address TGR alone. The assay followed the reduction of 5, 5'-dithiobis (2-nitrobenzoic acid) (DTNB) (Ellman's reagent) by NADPH and measured the increase in absorbance at 412 nm of the reaction product, TNB. […] This assay format can be used to screen the current MLSMR collection (with >300K compounds available) to find novel TGR inhibitors. Furoxan is a good choice to serve as a positive control in the primary HTS assay.
Three microliters of reagents (100 uM NADPH and 20 nM TGR or 100 uM NADPH as no-enzyme control) were dispensed into 1,536-well black clear-bottomed plates. Compounds (23 nL) were transferred via Kalypsys pin tool equipped with 1536-pin array (10 nL slotted pins, V&P Scientific, San Diego, CA). The plates were then be incubated for 15 min at room temperature, and 1 uL aliquot of 500 uM NADPH were added, immediately followed by a 1 uL aliquot of 15 mM DTNB to start the reaction. The plate was transferred to a ViewLux high-throughput CCD imager (Perkin-Elmer, Wellesley, MA) where kinetic measurements of the TNB absorbance were acquired using a 405 excitation filter. Throughout the screen, reagent bottles and all liquid lines were made light-tight to minimize reagent degradation. All screening operations were performed on a fully integrated robotic system (Kalypsys, San Diego, CA) containing one RX-130 and two RX-90 anthropomorphic robotic arms (Staubli, Duncan, SC). Library plates were screened starting from the lowest and proceeding to the highest concentration, and a "double-dipping" step of the highest concentration was required to access higher concentrations of compounds. Vehicle-only plates, with DMSO being pin-transferred to the entire column 5-48 compound area, were inserted uniformly at the beginning and the end of each library in order to monitor for and record any shifts in the background, which can be affected by reagent dispensers or loss in enzyme activity overtime. […]
`CCC(C)N(CC(C)C)C(=S)SC(NC(C)=O)C(Cl)(Cl)Cl` (stereo unspecified) was tested, and the Potency was inconclusive: 35.5 µM.
For `Cc1cc(SC(NC=O)C(Cl)(Cl)Cl)ncn1` (stereo unspecified), the Potency was inconclusive: 28.2 µM.
In the case of `O=[N+]([O-])c1cc([N+](=O)[O-])c(-c2ccn[nH]2)s1`, the Potency is reported as inconclusive: 50.1 µM.
In the case of `O=[As](O)(c1cccc(O)c1)c1cccc(O)c1`, the Potency is reported as inconclusive: 22.4 µM.
In the case of `Cc1ccc(NCCc2c([N+](=O)[O-])cc([N+](=O)[O-])cc2[N+](=O)[O-])cc1`, the Potency is reported as inconclusive: 28.2 µM.
`Nc1ccccc1[As](=O)(O)c1ccccc1` was tested, and the Potency was inconclusive: 14.1 µM.
With `NC(=O)Nc1ccc([As](=O)(O)O)cc1` the Potency was inconclusive: 50.1 µM.
With `O=[N+]([O-])c1ccc(O)c(/C=N/Nc2ccc([N+](=O)[O-])cc2[N+](=O)[O-])c1` the Potency was inconclusive: 10 µM.
For `Nc1ccc([As](=O)(O)c2ccc([N+](=O)[O-])cc2)cc1`, the Potency was inconclusive: 39.8 µM.
For `CCOC(=O)NC(Sc1ccccc1)C(Cl)(Cl)Cl` (stereo unspecified), the Potency was inconclusive: 44.7 µM.
`CC(=O)NC(SC(=S)N(CC(C)C)CC(C)C)C(Cl)(Cl)Cl` (stereo unspecified) was tested, and the Potency was inconclusive: 25.1 µM.
In the case of `O=c1c2cc([N+](=O)[O-])ccc2[nH]c2c([N+](=O)[O-])cc([N+](=O)[O-])cc12`, the Potency is reported as inconclusive: 44.7 µM.
For `Cc1c2non([O-])c-2c(C)[n+](=O)[n+]1[O-]`, the Potency was inconclusive: 10 µM.
With `O=C(NC(Sc1ccncn1)C(Cl)(Cl)Cl)c1ccccc1` (stereo unspecified) the Potency was inconclusive: 25.1 µM.
For `CC(=O)Nc1ccc([As](=O)(O)O)cc1`, the Potency was inconclusive: 56.2 µM.
With `O=C(O)CNc1ccc([As](=O)(O)O)cc1` the Potency was inconclusive: 50.1 µM.
